The list shows a part of the results, in another mix than the full data. The source made the active and inactive calls. The calls were made as follows: active = hit-call score of the fitted dose curve at least 0.9, where 1 is the maximum; inactive = score below 0.9.
Columns and labels:
[1] = APR_HepG2_CellLoss_24hr: Apredica 24-hour HepG2 Assay for Cell Loss (AID 2282908); details: high-content imaging;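 also: fit in both directions so a hit may be cell loss or gain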
In short: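 Read-out: Hoechst 33342-stained nuclei counted by automated fluorescence imaging after formaldehyde fixation and Triton permeabilization. Ten concentrations, 0.39 to 200 uM, duplicate wells, 0.5% DMSO final. Gain or loss of signal fitted relative to DMSO baseline.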

Chains of the proteins cited; added tags and fusions are not shown.
UniProt P16581, whole entry: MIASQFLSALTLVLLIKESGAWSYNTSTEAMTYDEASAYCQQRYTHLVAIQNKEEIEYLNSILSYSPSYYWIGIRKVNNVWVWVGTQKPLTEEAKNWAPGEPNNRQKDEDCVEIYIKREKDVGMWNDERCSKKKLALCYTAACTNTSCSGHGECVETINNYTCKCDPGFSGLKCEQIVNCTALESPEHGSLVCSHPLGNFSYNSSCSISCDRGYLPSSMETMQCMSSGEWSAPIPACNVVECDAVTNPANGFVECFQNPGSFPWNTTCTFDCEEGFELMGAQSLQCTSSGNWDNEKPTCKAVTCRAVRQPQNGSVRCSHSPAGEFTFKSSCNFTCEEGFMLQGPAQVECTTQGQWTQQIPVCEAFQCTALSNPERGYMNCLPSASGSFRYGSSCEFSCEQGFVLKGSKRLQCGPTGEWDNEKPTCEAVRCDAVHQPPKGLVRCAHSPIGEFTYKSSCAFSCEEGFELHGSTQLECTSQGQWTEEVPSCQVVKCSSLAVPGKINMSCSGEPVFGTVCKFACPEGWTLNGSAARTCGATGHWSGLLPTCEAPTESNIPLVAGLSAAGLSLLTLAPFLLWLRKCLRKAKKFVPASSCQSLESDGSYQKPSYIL

[2] = APR_HepG2_CellLoss_72hr: Apredica 72-hour HepG2 Assay for Cell Loss (AID 2282915); details: high-content imaging
[3] = BSK_3C_uPAR: BioMAP Diversity Plus: 3C Assay for Urokinase-type plasminogen activator receptor (uPAR) Biomarker Activity (AID 2282998); details: BioMAP 3C HUVEC, uPAR biomarker ELISA; actives raise or lower the signal
In short: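 In this endothelial cell-based assay, human umbilical vein primary cells were treated with chemicals and harvested at 24 h. uPAR was quantified using ELISA, with gains or losses fitted relative to DMSO controls.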

[4] = BSK_4H_Eotaxin3: BioMAP Diversity Plus: 4H Assay for Eotaxin 3 Biomarker Activity (AID 2283000); details: actives raise or lower the signal; primary human endothelial cells (HUVEC)
In short: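 Eotaxin-3 (CCL26) levels were measured by ELISA in HUVEC primary cultures 24 h post-dosing. Gain or loss of signal was fitted in both directions, with DMSO serving as baseline and negative control.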

[5] = read-out: Intercellular Adhesion Molecule 1 (ICAM1), ICAM1 (gene 3383); test: BSK_3C_ICAM1: BioMAP Diversity Plus: 3C Assay for Intercellular Adhesion Molecule 1 (ICAM1) Biomarker Activity (AID 2283003); details: actives raise or lower the signal; primary human endothelial cells (HUVEC)
In short: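 ELISA read-out of ICAM-1; HUVEC (primary human), 3C system, 24 h post-dosing; bidirectional fit vs DMSO baseline.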

[6] = read-out: Interleukin-1 alpha (IL1a), IL1A (gene 3552); test: BSK_BE3C_IL1a: BioMAP Diversity Plus: BE3C Assay for Interleukin-1 alpha (IL1a) Biomarker Activity (AID 2283016); details: actives raise or lower the signal; primary human bronchial epithelial cells
In short: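 ELISA read-out of IL-1a from human lung bronchial epithelial primary cells, 24 h post-dose. Gain or loss of signal fitted relative to DMSO negative control.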

[7] = read-out: Interleukin-8 (IL8), CXCL8 (gene 3576); test: BSK_3C_IL8: BioMAP Diversity Plus: 3C Assay for Interleukin-8 (IL8) Biomarker Activity (AID 2283020); details: actives raise or lower the signal; primary human endothelial cells (HUVEC)
In short: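 HUVEC, 3C stimulation; 24 h compound exposure; IL-8 read by ELISA; gain or loss of signal fitted relative to DMSO control.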

[8] = BSK_3C_SRB: Viability Assessment in the BioMAP Diversity Plus: 3C Assay (AID 2283023); details: primary human endothelial cells (HUVEC);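 also: cells read 24 h after compound dosing; fitted both ways against DMSO so a hit may be signal rise or drop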
In short: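 Human umbilical vein endothelial cells in the 3C system, treated 24 h. Total protein measured by 0.1% sulforhodamine B staining after 10% TCA fixation, read at 560 nm; bidirectional fit versus DMSO.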

[9] = BSK_4H_SRB: Viability Assessment in the BioMAP Diversity Plus: 4H Assay (AID 2283027); details: primary human endothelial cells (HUVEC);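 also: cells exposed to compound for 24 h before staining; curves fitted both ways versus DMSO so AC50 may be loss or gain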
In short: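 Cytotoxicity readout: sulforhodamine B (0.1%) staining of total protein after 10% TCA fixation, measured at 560 nm in human umbilical vein endothelium at 24 h. DMSO set the baseline; fitting was bidirectional.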

[10] = read-out: Human Leukocyte Antigen - DR isotype (HLADR), HLA-DRA (gene 3122); test: BSK_BE3C_HLADR: BioMAP Diversity Plus: BE3C Assay for Human Leukocyte Antigen - DR isotype (HLADR) Biomarker Activity (AID 2283032); details: actives raise or lower the signal; primary human bronchial epithelial cells
In short: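 Primary human bronchial epithelial cells (BE3C); 24 h chemical exposure; HLA-DR by ELISA; bidirectional curve fit vs DMSO baseline.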

[11] = read-out: Vascular cell adhesion molecule 1 (VCAM1), VCAM1 (gene 7412); test: BSK_4H_VCAM1: BioMAP Diversity Plus: 4H Assay for Vascular cell adhesion molecule 1 (VCAM1) Biomarker Activity (AID 2283033); details: actives raise or lower the signal; primary human endothelial cells (HUVEC)
In short: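 HUVEC, 24 h post-dose; VCAM-1 by ELISA. Bidirectional curve fit vs DMSO baseline. Parallel SRB total-protein stain (0.1% SRB after 10% TCA fixation, 560 nm) for cytotoxicity.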

[12] = read-out: Interferon-gamma inducible Protein 10 (IP10), CXCL10 (gene 3627); test: BSK_BE3C_IP10: BioMAP Diversity Plus: BE3C Assay for Interferon-gamma inducible Protein 10 (IP10) Biomarker Activity (AID 2283034); details: actives raise or lower the signal; primary human bronchial epithelial cells
In short: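 ELISA readout of IP-10 in BE3C system: primary human bronchial epithelial cells, 24 h post-dosing; bidirectional curve fit vs DMSO baseline.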

[13] = read-out: Transforming growth factor beta 1 (TGFb1), TGFB1 (gene 7040); test: BSK_BE3C_TGFb1: BioMAP Diversity Plus: BE3C Assay for Transforming growth factor beta 1 (TGFb1) Biomarker Activity (AID 2283036); details: actives raise or lower the signal; primary human bronchial epithelial cells
In short: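 Read-out: ELISA for TGF-b1 in primary human bronchial epithelial cultures, 24 h post-dose. Bidirectional curve fitting vs DMSO control; gain or loss of signal both scored.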

[14] = BSK_CASM3C_Proliferation: Cell Proliferation Assessment in the BioMAP Diversity Plus: CASM3C Assay (AID 2283047); details: primary human coronary artery smooth muscle cells;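 also: sulforhodamine B total protein stain as relative cell number at 560 nm; sub-confluent cells exposed 48 h before staining; fitted both ways against DMSO so gain or loss of cell number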
[15] = read-out: Monokine induced gamma interferon (MIG), CXCL9 (gene 4283); test: BSK_CASM3C_MIG: BioMAP Diversity Plus: CASM3C Assay for Monokine induced gamma interferon (MIG) Biomarker Activity (AID 2283048); details: actives raise or lower the signal; primary human coronary artery smooth muscle cells;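 also: MIG protein level measured by ELISA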
[16] = read-out: serum amyloid A (SAA), SAA1 (gene 6288); test: BSK_CASM3C_SAA: BioMAP Diversity Plus: CASM3C Assay for serum amyloid A (SAA) Biomarker Activity (AID 2283049); details: actives raise or lower the signal; primary human coronary artery smooth muscle cells;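 also: SAA protein level quantified by ELISA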
[17] = read-out: Urokinase-type plasminogen activator receptor (uPAR), PLAUR (gene 5329); test: BSK_CASM3C_uPAR: BioMAP Diversity Plus: CASM3C Assay for Urokinase-type plasminogen activator receptor (uPAR) Biomarker Activity (AID 2283054); details: actives raise or lower the signal; primary human coronary artery smooth muscle cells;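 also: cell-surface uPAR protein level quantified by ELISA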
[18] = read-out: Epidermal growth factor receptor (EGFR), EGFR (gene 1956); test: BSK_hDFCGF_EGFR: BioMAP Diversity Plus: hDFCGF Assay for Epidermal growth factor receptor (EGFR) Biomarker Activity (AID 2283057); details: actives raise or lower the signal; primary human foreskin fibroblasts
In short: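 ELISA readout of EGFR on human dermal fibroblasts (primary foreskin cells), 24 h post-dosing; bidirectional curve fit vs DMSO baseline, gain or loss of signal scored.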

[19] = read-out: Interleukin-8 (IL8), CXCL8 (gene 3576); test: BSK_hDFCGF_IL8: BioMAP Diversity Plus: hDFCGF Assay for Interleukin-8 (IL8) Biomarker Activity (AID 2283058); details: actives raise or lower the signal; primary human foreskin fibroblasts
In short: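 Primary human foreskin fibroblasts (hDFCGF system) dosed with chemical; IL-8 measured by ELISA 24 hours later. Bidirectional curve fitting relative to DMSO baseline; cytotoxicity tracked in parallel cultures by SRB total protein staining.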

[20] = read-out: Matrix Metallopeptidase 1 (MMP1), MMP1 (gene 4312); test: BSK_hDFCGF_MMP1: BioMAP Diversity Plus: hDFCGF Assay for Matrix Metallopeptidase 1 (MMP1) Biomarker Activity (AID 2283064); details: actives raise or lower the signal; primary human foreskin fibroblasts
In short: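 Human foreskin fibroblasts exposed to chemical for 24 h; MMP1 detected by ELISA, with DMSO as baseline for bidirectional fitting.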

[21] = read-out: Intercellular Adhesion Molecule 1 (ICAM1), ICAM1 (gene 3383); test: BSK_KF3CT_ICAM1: BioMAP Diversity Plus: KF3CT Assay for Intercellular Adhesion Molecule 1 (ICAM1) Biomarker Activity (AID 2283067); details: actives raise or lower the signal; primary human keratinocytes with fibroblasts
In short: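 Human keratinocyte–foreskin fibroblast co-culture was treated for 24 h. Cell-surface ICAM-1 was quantified by ELISA, fitted bidirectionally relative to DMSO. Cytotoxicity was checked in parallel cultures by SRB total-protein staining.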

[22] = read-out: E-selectin (Homo sapiens) (UniProt P16581); test: BSK_LPS_Eselectin: BioMAP Diversity Plus: LPS Assay for Eselectin Biomarker Activity (AID 2283077); details: actives raise or lower the signal; primary human HUVEC with PBMC
In short: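 Human umbilical vein endothelial cells co-cultured with PBMC under LPS stimulation; cell-surface E-selectin measured by ELISA 24 h after dosing. Change in either direction versus DMSO, with SRB total-protein staining in parallel cultures for cytotoxicity.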

Measured: AC50

O=C1C2CC=CCC2C(=O)N1SC(Cl)(Cl)C(Cl)Cl (configuration not stated)
active: [1] 10.6 µM | [2] 5.44 µM | [3] 12.8 µM | [4] 14.1 µM | [5] 13.6 µM | [6] 5.03 µM | [7] 27.8 µM | [8] 11.4 µM | [9] 15.5 µM | [10] 5.05 µM | [11] 16.6 µM | [12] 5.05 µM | [13] 5.05 µM | [14] 2.17 µM | [15] 10.9 µM | [16] 11.7 µM | [17] 8.06 µM | [18] 1.54 µM | [19] 2.74 µM | [20] 1.21 µM | [21] 2.14 µM | [22] 10.1 µM
